Measured values published in PMC12363935, “Unc-51 Like Kinase 3 (ULK3) is essential for autophagy and cell survival in multiple myeloma” (Research Square, 2025).

By UniProt entry, the sequences of proteins in these tests, tags left out.
UniProt O60674, whole entry: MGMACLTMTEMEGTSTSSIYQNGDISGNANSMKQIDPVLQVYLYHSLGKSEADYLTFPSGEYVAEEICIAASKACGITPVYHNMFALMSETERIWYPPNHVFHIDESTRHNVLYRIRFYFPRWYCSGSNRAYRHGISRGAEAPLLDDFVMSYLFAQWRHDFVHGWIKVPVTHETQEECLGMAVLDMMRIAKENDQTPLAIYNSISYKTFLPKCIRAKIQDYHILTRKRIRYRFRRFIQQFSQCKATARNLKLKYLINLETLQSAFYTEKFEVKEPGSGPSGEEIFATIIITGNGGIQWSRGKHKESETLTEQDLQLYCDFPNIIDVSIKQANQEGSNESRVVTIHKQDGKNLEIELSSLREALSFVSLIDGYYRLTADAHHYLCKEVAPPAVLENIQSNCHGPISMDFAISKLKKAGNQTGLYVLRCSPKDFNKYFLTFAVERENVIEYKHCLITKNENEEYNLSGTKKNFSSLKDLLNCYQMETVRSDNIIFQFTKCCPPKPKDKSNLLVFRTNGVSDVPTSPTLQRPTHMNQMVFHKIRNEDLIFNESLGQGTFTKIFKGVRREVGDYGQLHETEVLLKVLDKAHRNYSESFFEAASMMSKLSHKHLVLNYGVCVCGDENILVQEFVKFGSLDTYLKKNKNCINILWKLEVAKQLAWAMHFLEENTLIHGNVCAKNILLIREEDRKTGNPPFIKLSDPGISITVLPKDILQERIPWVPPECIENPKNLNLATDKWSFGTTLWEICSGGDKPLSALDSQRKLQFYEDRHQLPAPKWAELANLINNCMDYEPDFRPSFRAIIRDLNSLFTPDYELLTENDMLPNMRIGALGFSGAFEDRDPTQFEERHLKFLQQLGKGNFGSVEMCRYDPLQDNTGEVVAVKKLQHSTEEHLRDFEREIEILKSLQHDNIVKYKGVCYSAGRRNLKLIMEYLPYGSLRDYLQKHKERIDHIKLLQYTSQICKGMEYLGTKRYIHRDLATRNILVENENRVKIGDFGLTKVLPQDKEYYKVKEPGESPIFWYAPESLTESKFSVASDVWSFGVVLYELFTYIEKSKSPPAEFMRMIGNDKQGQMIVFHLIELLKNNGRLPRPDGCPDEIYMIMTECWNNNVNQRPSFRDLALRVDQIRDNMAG

Tests used:
JAK2 = JAK2 (Homo sapiens, UniProt O60674); assay: Kinase profiling assay (Reaction Biology), 10-dose IC50, 10 μM ATP; type: biochemical; conditions: read-out: IC50 (nM) JAK2; NA = no activity
Description: 310 and refinement were performed with COOT [14] and Phenix.Refine to obtain a clear electron
311 density map (1Fo-Fc) for compound MA9-060, which was built into the structure near the end of
312 iterative cycles of model building and refinement. Crystal parameters, data collection statistics and
313 refinement statistics are summarized in Supplementary Fig. 4D and deposited in the protein
314 databank with PDB code 8V1M.
317 The compounds under investigation were tested by Reaction Biology Corporation against four
318 specific kinases in this study (JAK2, ULK1, ULK2, ULK3). Each compound was provided as a
319 10 mM stock solution. To facilitate dissolution, the compounds were subjected to gentle heating.
320 Subsequent testing involved the evaluation of the compounds using a 10-dose IC50 mode,
Additionally, the control compound,
Throughout these experiments, reactions were conducted using a standardized concentration
325 The data collected during these assays encompass raw data, % enzyme activity (relative to DMSO
327 activities at the highest concentration of compounds were less than 65%. The IC50 summary,
328 detailing the inhibitory concentrations of the compounds against the respective kinases, is
331 Bromodomain profiling assay
332 Briefly, four compounds (SG3-014, MA9-060, JQ1, CQ; stock concentration of 10 mM) were
333 evaluated against Bromodomain 1 by Reaction Biology Corporation. […]

[1] = Microsome stability assay, 1 μM, 1 hour; type: in vitro ADME; conditions: % of compound remaining after 1 hour
Description: Supplementary Figure 4. Pharmacokinetic properties of MA90-60 and the structure of the MA9-060: ULK3 […]
complex. Supplementary Figure 5. Pharmacokinetic properties of MA90-60 and the structure of the MA9- […]
060: ULK3 complex. A. Enzymatic inhibition (IC50 nM) of BRD4, JAK2, ULK1, ULK2, ULK3 by SG3014 and […]
here as reference for BRD4 inhibitory activity. CQ is used here as a reference control for autophagy inhibition. NA= […]
“no activity”. B. Microsome stability assay for SG3014 and MA9060, expressed as % of compound remaining after […]
1 hour incubation with liver microsomes. C. X-ray resolved crystal structure of MA9060 (stick model) bound to […]
ULK3 rendered in Pymol (Schrodinger Inc.) at a 2.8 Å resolution. D. Table summarizing hULK3-MA9060 crystallographic data collection and refinement statistics. E. MA9060 is a dual inhibitor, able to decrease both ULK3 and MYC protein levels in MYC-dependent MM1.S MM cells. JQ1 is here included as the control for […]
mesenchymal stem cells (hMSCs) at 24 (G) and 48 (H) hours.
279 wavelengths for each dye. Images were captured through a 40X/1.3NA objective lens with a 2X […]
280 zoom using sequential acquisition on two PMT detectors. […]
286 detection algorithm was used to detect green fluorescence spots with identical intensity and size […]
295 quantification of the remaining compound was determined through High-Performance Liquid […]

osteoclasts = assay: In vitro osteoclast differentiation assay, TRAcP staining; type: cell-based, C57BL/6 Rag2-/- mice
Description: 340 Detection was carried out through the AlphaScreen Binding assay with excitation/emission
341 wavelengths set at 680/520-620 nm, respectively, using the Enspire platform.
342 The data acquisition included raw data, represented as signal-background*, % Binding (relative to
343 DMSO controls), and curve fits.
346 is presented in Supplementary Fig. 4A.
349 WM1366 mCherry-GFP-LC3 cells were obtained as a kind gift of Dr. Keiran Smalley’s
350 collaboration with The Wistar Institute and produced as previously described.
352 medium was refreshed with RPMI containing 10% fetal bovine serum, and treated with vehicle
353 control, SG3-014, MA9-060, JQ1, CQ (0.1 µM). After 6 hours, cells were fixed and permeabilized
355 Imaging was performed with an inverted Leica SP8 confocal microscope equipped with an
356 40X/1.3NA oil lens objective. Cells were mounted in a 35 mm FluoroDish Cell Culture Dish (WPI,
357 Sarasota, FL), and z-stacks were acquired at a speed of 400 Hz approximately 30 min post- […]
374 multinucleated (³3 nuclei) osteoclasts were counted using ImageJ [17]. […]
389 distilled water) at 37°C and monitored for development of red stained osteoclasts. […]
392 quantified from multiple tissue sections. […]
397 tumor area (TuA) was calculated as a function of the total tissue area (TotA) of the tibial medullary […]
401 An ex vivo assay was used to quantify the chemosensitivity of primary MM cells. […]

[2] = tested on: mesenchymal stem cells (MSCs) and MC3T3-osteoblasts (OBL); assay: MTS assay on MSCs and osteoblasts; type: cell-based; conditions: 0.001-1 µM
Excerpt: Supplementary Figure 3. Characterization of the novel autophagy inhibitor SG3-014. A. Chemical structure
of autophagy inhibitor SG3-014. B. BRD4 gene expression in Moffitt MM Patient Dataset, with MM patients divided
in disease stage cohorts. Data are represented as violin plots. Asterisks denote significance (Significance: (****)
P<0.0001, (***) P<0.001, (**) P<0.01, (*) P<0.05, One-way ANOVA followed by Tukey’s test). C. SG3-014
treatment (0-3 µM) decreases ULK3 protein levels in U266 MM cells (6h). JQ1 is here included as a control for
BRD4 regulation (D). E. The effects of SG3-014 (1µM) and JQ1 (10µM) (6-hour treatment) on steady state levels
of the indicated autophagy proteins in U266 MM cells. Chloroquine (CQ) (1 µM) served as a positive control for
autophagy inhibition. Temsirolimus (Tems) (1 µM), an mTOR inhibitor, is included as a control for autophagy
induction. F.-G. The effects of SG3-014 treatment on autophagic flux. m-Cherry-GFP-LC3B expressing WM1366
melanoma cells were treated with SG3-014 novel inhibitor and effects on autophagic flux were quantified by
confocal microscopy analysis (n = 7). Red puncta indicate ongoing autophagy while yellow mcherry-GFP-LC3B […]
in the acidic autophagosome pH. Quantification (G) is expressed as normalized colocalization: (sum of red and […]
SG3-014 (50 nM) are also shown. […] Quantification is shown in histograms (n = […]

Compound: Cc1cnc(Nc2ccc(N3CCN(C)CC3)cc2)nc1Nc1ccc(Cl)c(NS(=O)(=O)C(C)(C)C)c1
- IC50 (JAK2): 4.1 nM
- Microsomal Stability (%) ([1]; Human): 53.9%
- Microsomal Stability (%) ([1]; Mouse): 3.5%
- osteoclastogenesis (osteoclasts): potently inhibit
- effect on mesenchymal stromal cells (MSCs) or osteoblasts [2]: no effect
